Experimental data published in patent publication US20010056085A1, “Methods of using vesicant drug formulations” (priority 1996, published 2001).
Like-named read-outs stand apart in the source and are kept apart here.

Experiments:
[1] = Half-life of ADR destruction by UVA light in the presence of test compounds (decrease in absorbance at 480 nm); type: physicochemical
P388 cells = experiment: In vitro cell culture assay: growth inhibitory effect of UVA-irradiated DOX solutions; type: cell-based, murine
Protocol: Cell culture was carried out as previously described (Ramu et al. [1984] Cancer Res., 44:144). Briefly, P388 murine leukemia cells (i.e., P388D1 available from the ATCC; […] An inoculum of cells was transferred to fresh medium once every 4 days to maintain exponential growth. […] Drug solutions (0.2 ml/well) in 24 well culture clusters without the lid were irradiated in a laminar flow hood with 3 Blacklight Blue 40 W lamps (Vilber Lourmat, Marne la Vallee, France).

[2] = Effect of UVA irradiation on the absorbance spectrum of DOX (350-600 nm; KDOX at 480 nm); type: physicochemical
[3] = UVA light, 100 μM test compound alone
[4] = UVA light, 100 μM test compound with 0.5 μM riboflavin

Compound	Half-Life of ADR Destruction, 100 μM Test Compound [1, 3] [min]	Half-Life of ADR Destruction, 100 μM Test Compound and 0.5 μM Riboflavin [1, 4] [min]	other results
Cc1ccc(C(=O)c2ccc(CC(=O)O)n2C)cc1 [Tolmetin, 1-Methyl-5-(4-methylbenzoyl)-pyrrole-2-acetic acid, reference compound]	2.15	1.31	–
N[C@@H](CCc1ccccc1)C(=O)O [Homophenylalanine]	–	75.3	–
COc1cc(C=CC(=O)O)ccc1O [3-Methoxy-4-Hydroxy Cinnamic Acid]	50.2	50.2	–
O=C(O)CCc1nc(-c2ccccc2)c(-c2ccccc2)o1 [Oxaprozine, reference compound]	17.7	8.55	–
N,N-Dimethyl-5-Methoxy Indole	–	–	Half-Life of ADR Destruction, 100 μM Test Compound [1]: 37.6 min; Half-Life of ADR Destruction, 100 μM Test Compound and 0.5 μM Riboflavin [1]: 15.8 min
CC(C(=O)O)c1ccc(C(=O)c2cccs2)cc1 (centres unmarked) [Suprofen, reference compound]	0.456	<1.11	–
Nc1ccc(C(=O)O)cc1N [3,4-Diamino Benzoic Acid]	–	50.2	–
O=C1c2ccccc2Cc2ccccc21 [Anthrone]	1.38	1.27	–
Cn1c(=O)c2[nH]cnc2n(C)c1=O [1,3-Dimethyl Xanthine (Theophylline), 1,3-Dimethyl Xanthine, reference compound]	50.2	14.3	–
O=C(O)C=Cc1cccs1 [Thiophene-2-acrylic acid]	43.0	30.1	–
O=[N+]([O-])c1ccc2[nH]ccc2c1 [5-Nitro Indole]	–	21.5	–
3-(N-Aminophenyl)-1-Propanol	–	50.2	–
O=C(O)CNc1ccccc1 [N-Phenylglycine]	43.0	15.8	half-life (FIG. 32) ([1]; compound alone): 43.0; half-life (FIG. 32) in the presence of riboflavin ([1]; compound in combination with riboflavin): 15.8
COc1ccccc1C=CC(=O)O [2-Methoxy Cinnamic Acid]	43.0	30.1	–
COc1cccc2c1C(=O)c1c(O)c3c(c(O)c1C2=O)C[C@@](O)(C(=O)CO)C[C@@H]3O[C@H]1C[C@H](N)[C@H](O)[C@H](C)O1.Cl [DOX, Doxorubicin HCl, reference compound]	–	–	irradiation period required to prevent the growth inhibitory effects of DOX solutions (P388 cells; 0 to 3 μM DOX and 2 μM riboflavin, without DABCO): > 10 min; drug toxicity abolished (P388 cells; 0 to 3 μM DOX, 2 μM riboflavin, 5 mM DABCO in PBS, […] of UVA irradiation): about 90%; UVA exposure after which the growth inhibitory effect of DOX was destroyed (P388 cells; 0.3 μM DOX with 15 μM riboflavin in PBS): 8 min; effect of UVA irradiation on the growth inhibitory effect of the drug (P388 cells; DOX in PBS, irradiated for up to 30 minutes): did not affect the growth inhibitory effect; drug activity destroyed (P388 cells; DOX in RPMI medium 1640, 1 mm thick solution, 20 joules of UVA energy): about 90%; KDOX ([2]; 20 μM DOX, only the inorganic salts of RPMI medium 1640, 50 mM HEPES, UVA): 3.3e-05 s⁻¹; KDOX ([2]; RPMI medium 1640 without riboflavin): 0.00012 s⁻¹; KDOX ([2]; inorganic salt mixture + riboflavin 0.5 μM): 0.0001 s⁻¹; KDOX ([2]; inorganic salts + amino acid and vitamin mixtures): 0.000483 s⁻¹; KDOX ([2]; inorganic salts + histidine, methionine, tryptophan and tyrosine, without the vitamin mixture): 3.3e-05 s⁻¹; KDOX ([2]; inorganic salts + riboflavin 0.5 μM + histidine, methionine, tryptophan and tyrosine): 0.000367 s⁻¹; KDOX ([2]; inorganic salts + the 20 amino acids of RPMI medium 1640): 6.7e-05 s⁻¹; KDOX ([2]; inorganic salts + vitamin mixture): 0.00012 s⁻¹; KDOX ([2]; inorganic salts + vitamin mixture lacking riboflavin): 6.7e-05 s⁻¹; KDOX ([2]; inorganic salts + vitamin mixture lacking riboflavin + histidine, methionine, tryptophan and tyrosine): 8.3e-05 s⁻¹; KDOX ([2]; inorganic salts + vitamins + histidine, methionine, tryptophan and tyrosine): 0.000417 s⁻¹; KDOX ([2]; inorganic salts + vitamins + the other 16 amino acids): 5e-05 s⁻¹
O=C(O)Cc1ccccc1Nc1c(Cl)cccc1Cl [Diclofenac, reference compound]	20.1	15.8	–
CC1=C(CC(=O)O)c2cc(F)ccc2/C1=C\c1ccc([S+](C)[O-])cc1 (centres unmarked) [Sulindac, Methyl-4-[(5-fluoro2-methyl-indene-3-acetic acid)-1-methylene]phenyl sulfoxide, reference compound]	100.3	100.3	–
